# Ab-14 light chain CDR variants: yeast mating affinities

Data: MIT Lincoln Laboratory AlphaSeq set, Li et al. 2023, doi:10.1038/s41467-023-39022-2, as distributed in FLAb.

All variants were tested on one target, the spike HR2 peptide PDVDLGDISGINAS (SARS-CoV-2).

Ab-14 is the parent antibody, in scFv form: VH, then a (GGGGS)3 linker, then VL. The heavy chain is unchanged in all variants.
VH: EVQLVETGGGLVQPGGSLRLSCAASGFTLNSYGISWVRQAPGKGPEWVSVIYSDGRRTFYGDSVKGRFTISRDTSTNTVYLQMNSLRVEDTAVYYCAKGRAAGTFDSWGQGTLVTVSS
VL: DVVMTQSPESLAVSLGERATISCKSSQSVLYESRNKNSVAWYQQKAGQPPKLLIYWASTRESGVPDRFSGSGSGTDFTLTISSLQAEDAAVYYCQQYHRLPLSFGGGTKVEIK

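This is the validation round: designs drawn from the data on random variants, tested in the same kind of assay. Their group label is 14L_En_Gibbs (En: ensemble of fine-tuned language models; Gibbs: Gibbs sampling). The assay is AlphaSeq: two haploid yeast populations carry antibody and antigen on their surface. Binding brings cells together so that they mate, and sequencing counts the barcode pairs among the diploids. Each replicate has its own calibration line, from reference interactions of the BCL2 family. Mating was done six times.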

The parent's light chain CDRs are KSSQSVLYESRNKNSVA, WASTRES, QQYHRLPLS; each variant's own CDRs replace them letter for letter. Affinities are written as log10 Kd with Kd in nM; a lower number is a better binder. Replicates are averaged; those with no signal do not enter the mean. "nd" marks a missing value. The strain was present, yet no cells mated with the target were sequenced in that replicate, which points to weak or no binding.

CDR-L1	CDR-L2	CDR-L3	log10 Kd (nM) by replicate	mean log10 Kd (nM)	signal with controls
KISMEPLVEWNHAQAIA	DAHASYI	QQYFHLPLY	nd nd nd nd nd nd	nd	0/18
SLTSHEEEKEGAEASVA	NAMMLES	QQYHRLPLM	0.68 1.10 0.59 0.56 0.84 1.24	0.84	2/18 (1.95)
QLQIEPNGYMGMRNNVA	DGGMVRM	QQYARLPLM	0.18 -0.05 0.02 -0.02 0.05 0.02	0.03	0/18
SLRAMILDWDNKRQNIA	DVHMREQ	QQYNRLPIV	0.59 0.24 0.08 0.05 0.25 0.41	0.27	1/18 (1.94)
SVHFQGTTGEKNWESVA	ENSIRVE	QQYSHLPLL	2.21 1.44 1.56 2.17 2.01 1.97	1.89	0/18
RIAEQYFEYMHNINNVA	EAECKAY	QQYAHLPLL	1.41 0.96 1.17 1.26 1.25 1.45	1.25	1/18 (3.26)
KLNDTFQVYERNNGSVA	DAIISEA	QQYARLPLI	1.11 0.76 0.22 0.74 0.44 1.30	0.76	0/18
NLGGLDVNSTYEMDAVA	DVSEVGE	QHYSRLPLT	nd 3.20 nd 3.27 nd 3.44	3.30	1/18 (2.96)
ALALTLHQNESNQSNIA	QVMEREV	QQYYRLPLG	nd nd nd 1.87 nd nd	1.87	1/18 (2.40)
KLEDQMQTSIASDNSVA	DTNMGHE	QQYNRLPLV	0.70 0.63 0.72 0.60 0.34 0.88	0.64	1/18 (1.28)
HLSINLPGNWYMGDSVA	HSERRAE	QQYARLPLG	0.24 0.09 0.13 0.42 0.19 0.40	0.24	0/18
NMRGVEGEIAQHGYSVA	GVDLRAA	QQYARLPLH	1.15 1.24 1.05 1.14 0.97 1.24	1.13	3/18 (3.45)
SLEAFEYQIMKDLNNIA	NTQTRAN	QQYMRLPFM	-0.04 -0.57 0.07 -0.40 -0.28 0.29	-0.16	0/18
KLYSAKQGDIAQNQNVA	AADVLTQ	QQYNKLPLS	0.70 0.12 2.06 0.51 1.09 0.61	0.85	0/18
KIYQVGLGSQKVMRNIA	ETSTRCT	QSYQRLPLS	1.57 1.08 0.56 1.66 1.23 1.22	1.22	0/18
KLSTGTYGLTGHTSSVA	HDEMRWE	QQYHKLPLI	2.64 2.20 1.84 2.13 1.47 2.28	2.09	1/18 (2.00)
HIDIINRGEDMKQDPIA	QADHREQ	QQYFQLPLI	0.74 0.87 1.05 0.69 1.17 0.91	0.91	2/18 (2.44)
MIEIIQDGYDEMRSAIA	DTNLVRM	QQYYHLPLM	nd nd nd nd nd nd	nd	0/18
HVSQLLTDEMYREYNVA	ETSHVEE	QDYERLPLI	nd nd nd 1.58 nd nd	1.58	0/18
KFMYSGEYQMHEQNNIA	QGNIKTV	QQYFRLPIY	0.76 0.80 0.28 0.54 0.70 0.91	0.66	0/18
KIQHLTYFENIGEWSVA	DANTSVL	QDYFRLPLS	0.50 1.25 1.62 2.80 1.25 1.88	1.55	1/18 (2.30)
SLTAHVEEAKGAENSVA	QAVMLES	QQYHQLPLM	0.82 0.76 0.40 0.95 0.93 1.11	0.83	4/18 (3.04)
KLWAYFQGLESKMQNVA	DGSYRST	QQYDRLPLS	1.12 1.04 1.61 1.32 1.01 0.76	1.14	0/18
NLQNGGSELSVWSRNIA	DANIRES	QQYFRLPLL	0.15 -0.01 0.16 0.05 -0.04 0.21	0.09	1/18 (1.43)
QLFSRWGQLEEIRYAVA	DATTVID	QQYMHLPLT	2.18 1.57 1.95 nd 1.63 1.70	1.80	2/18 (1.56)
FIEHFGEDSNRNSKNIA	SKELRQV	QQYDRLPLS	0.40 0.52 0.54 0.32 0.35 0.34	0.41	0/18
QLMFKEATGMNNAYNVA	EAEYSGT	QQYSQLPLG	nd nd nd nd nd nd	nd	0/18
QIALSEEEVGIQKNSIA	ENTVRPA	QQYLRLPLH	2.37 1.60 nd 1.84 1.53 2.31	1.93	0/18
FIGGNYNDKYQASNSIA	DEAHLMA	QQYDLLPLS	nd nd nd 2.49 nd nd	2.49	1/18 (2.59)
RLLGQNLQNMDKLNSIA	EQSVHYQ	QQYGRLPLT	1.24 1.26 1.09 1.34 0.99 1.49	1.23	1/18 (3.06)
KLRDEADGWNRNEWNIA	DADHRGA	QQYSHLPLC	nd nd nd nd 3.68 4.16	3.92	3/18 (2.66)
AFTNSIFYGQRDSNSIA	HADVLEK	QQYFRFPLA	1.30 1.33 1.05 2.19 1.27 1.16	1.38	1/18 (2.31)
SVQVYTENFMERGQNIA	DASAKTV	QQYDRLPLA	nd 0.09 0.35 0.83 0.15 0.33	0.35	0/18
HLSDLLSYGKDLQRAVA	GVQTRMT	QQYARLPLF	0.53 0.37 0.25 0.28 0.35 0.40	0.36	1/18 (2.26)
HVSSMDMHDGGIKHSVA	DMKITER	QQYMRLPLS	0.96 0.56 1.68 0.67 0.60 1.53	1.00	0/18
NLFGVDFESKQMGNAIA	DMSHVMA	QQYFMLPLH	1.27 0.99 0.92 0.87 1.29 1.03	1.06	0/18
KIDGQRSYDAGRERAIA	DVTIRFR	QQYARLPLL	1.34 1.75 1.16 1.55 1.41 1.42	1.44	0/18
KLTEPMASWRGARHNIA	DRTVTAP	QQYSRLPIT	0.92 0.96 0.86 1.00 1.07 0.81	0.94	0/18
KIHCRELWYQGQWNNIA	EAAKLVE	QQYALLPLA	nd 1.49 nd 1.56 nd 1.90	1.65	1/18 (1.58)
MFEEYQSYGAANLNAVA	DANCTMF	QQYYRLPIS	1.70 1.60 1.68 1.60 1.58 1.67	1.64	3/18 (2.91)
RLTHNTFVLDRDKYSIA	DSEVKME	QQYNQLPLS	nd 2.14 2.92 2.65 2.18 3.68	2.71	1/18 (2.43)
KFMYSLEYQMHEQNNIA	HGNIKTV	QQYFRLPIY	0.47 0.31 -0.10 0.42 0.06 0.45	0.27	1/18 (3.60)
HVHMEFAEEKNIRYNIA	DASMRLA	QQYVRLPLG	0.76 0.76 0.20 0.74 0.67 0.75	0.65	0/18
MFALYQDSMGDAKNSIA	DRNTKAH	QQYSRLPLV	0.84 0.81 0.88 0.35 0.25 0.39	0.59	1/18 (2.44)
NLKENNVDNQTFYSNIA	EADIREL	QQYYRLPLQ	nd 1.29 nd 1.79 nd nd	1.54	0/18
NIRGVEFESAMMGNAVA	DMSAVMA	QQYFRLPLH	1.25 1.83 1.05 1.14 1.00 1.42	1.28	0/18
QMYPFGNAKGEGSNNVA	HVSTRAL	QQYFRLPLV	0.21 0.81 0.15 0.47 0.24 0.10	0.33	1/18 (3.26)
KLQMSHQGNPKDHYAIA	EGISATT	QQYARLPLM	nd 2.22 2.55 2.48 1.83 2.14	2.24	0/18
SIRQVTCDNQRTHSNIA	DATQIEP	QQYSRLPLS	-0.03 -0.15 0.01 -0.18 -0.07 -0.08	-0.08	1/18 (2.64)
HISSMDMLDGGIIHSIA	DTGITER	QQYMRLPLI	0.74 0.93 0.64 0.83 0.98 0.76	0.81	3/18 (2.42)
SLEPFEYQIMKDLNNIA	NTQTRAN	QQYMRLPIM	0.34 0.22 0.30 0.11 0.46 0.44	0.31	1/18 (2.10)

The opening 6 entries, copied out:

CDR-L1	CDR-L2	CDR-L3	log10 Kd (nM) by replicate	mean log10 Kd (nM)	signal with controls
KISMEPLVEWNHAQAIA	DAHASYI	QQYFHLPLY	nd nd nd nd nd nd	nd	0/18
SLTSHEEEKEGAEASVA	NAMMLES	QQYHRLPLM	0.68 1.10 0.59 0.56 0.84 1.24	0.84	2/18 (1.95)
QLQIEPNGYMGMRNNVA	DGGMVRM	QQYARLPLM	0.18 -0.05 0.02 -0.02 0.05 0.02	0.03	0/18
SLRAMILDWDNKRQNIA	DVHMREQ	QQYNRLPIV	0.59 0.24 0.08 0.05 0.25 0.41	0.27	1/18 (1.94)
SVHFQGTTGEKNWESVA	ENSIRVE	QQYSHLPLL	2.21 1.44 1.56 2.17 2.01 1.97	1.89	0/18
RIAEQYFEYMHNINNVA	EAECKAY	QQYAHLPLL	1.41 0.96 1.17 1.26 1.25 1.45	1.25	1/18 (3.26)

A sequence measured in both rounds can read differently, since the two assays cover different ranges. As a blank, each scFv also met three strains without target: over all light chain designs, 4% of these pairings were detected, typically at 2.64 and seldom below 1.59. Also given: how often the same scFv was detected with the empty control strains, with their mean in brackets. The authors averaged sequences with at least three values out of six and counted those with two or fewer as poor binders.